Like-named read-outs stand apart in the source and are kept apart here.
What was measured:
PLC/PRF/5 cells [1] = assay: MTT cell viability assay, PLC/PRF/5; settings: PLC/PRF/5, 72 h
[2] = tested on: FGFR3 mRNA in Hep3B cells; assay: FGFR3 mRNA by RT-PCR, Hep3B; assay type: cell-based, human; settings: 72 h
[3] = tested on: phosphorylated-Erk in PLC/PRF/5 cells; assay: western blotting of p-Erk; assay type: cell-based, human; settings: PLC/PRF/5, DE605 alone
[4] = tested on: PLC/PRF/5 tumor xenografts; assay: PLC/PRF/5 tumor xenograft model; settings: oral, qd, 28 days; sorafenib 60 mg/kg, DE605 80 mg/kg; versus control group
[5] = target: c-Met phosphorylation in PLC/PRF/5 cells (Homo sapiens, UniProt P08581); assay: phospho-c-Met capture ELISA, HGF-stimulated PLC/PRF/5 cells
Protocol: (§1) We next investigated whether DE605 could inhibit c-Met phosphorylation induced in liver cancer cells by different mechanisms. To this end, we used the PLC/PRF/5 and Hep3B hepatocellular carcinoma cell lines, in which c-Met phosphorylation is respectively triggered by HGF binding or by c-Met gene amplification and ligand-independent activation. […] Moreover, we defined the efficiency of the cellular uptake and retention of DE605. A series of wash-out studies was conducted, in which PLC/PRF/5 and Hep3B cells were incubated for 30 to 45 minutes in the presence of different concentrations of DE605, washed, stimulated with HGF, and subsequently assessed for c-Met phosphorylation. […]
(§2) Figure 1 Effects of DE605 on c-Met phosphorylation, cell viability and epigenetic markers (A-B) PLC/PRF/5 (A) and Hep3B (B) hepatocellular carcinoma cells are characterized by c-Met expression and ligand dependence. […] Upon HGF stimulation, inhibition of total c-Met phosphorylation by DE605 was assessed by c-Met capture ELISA using a pan-phospho-Tyr antibody. The levels of total phospho-c-Met were also assessed after wash-out of the inhibitors, as described in the Materials and Methods section. […] The cells were treated with different concentrations of the indicated agents for 72 hours, and cell viability was measured by MTT assay. […]

By UniProt entry, the sequences of proteins in these tests, tags left out. Residues count along the entry.
UniProt P08581, 25-1390 limits assumed: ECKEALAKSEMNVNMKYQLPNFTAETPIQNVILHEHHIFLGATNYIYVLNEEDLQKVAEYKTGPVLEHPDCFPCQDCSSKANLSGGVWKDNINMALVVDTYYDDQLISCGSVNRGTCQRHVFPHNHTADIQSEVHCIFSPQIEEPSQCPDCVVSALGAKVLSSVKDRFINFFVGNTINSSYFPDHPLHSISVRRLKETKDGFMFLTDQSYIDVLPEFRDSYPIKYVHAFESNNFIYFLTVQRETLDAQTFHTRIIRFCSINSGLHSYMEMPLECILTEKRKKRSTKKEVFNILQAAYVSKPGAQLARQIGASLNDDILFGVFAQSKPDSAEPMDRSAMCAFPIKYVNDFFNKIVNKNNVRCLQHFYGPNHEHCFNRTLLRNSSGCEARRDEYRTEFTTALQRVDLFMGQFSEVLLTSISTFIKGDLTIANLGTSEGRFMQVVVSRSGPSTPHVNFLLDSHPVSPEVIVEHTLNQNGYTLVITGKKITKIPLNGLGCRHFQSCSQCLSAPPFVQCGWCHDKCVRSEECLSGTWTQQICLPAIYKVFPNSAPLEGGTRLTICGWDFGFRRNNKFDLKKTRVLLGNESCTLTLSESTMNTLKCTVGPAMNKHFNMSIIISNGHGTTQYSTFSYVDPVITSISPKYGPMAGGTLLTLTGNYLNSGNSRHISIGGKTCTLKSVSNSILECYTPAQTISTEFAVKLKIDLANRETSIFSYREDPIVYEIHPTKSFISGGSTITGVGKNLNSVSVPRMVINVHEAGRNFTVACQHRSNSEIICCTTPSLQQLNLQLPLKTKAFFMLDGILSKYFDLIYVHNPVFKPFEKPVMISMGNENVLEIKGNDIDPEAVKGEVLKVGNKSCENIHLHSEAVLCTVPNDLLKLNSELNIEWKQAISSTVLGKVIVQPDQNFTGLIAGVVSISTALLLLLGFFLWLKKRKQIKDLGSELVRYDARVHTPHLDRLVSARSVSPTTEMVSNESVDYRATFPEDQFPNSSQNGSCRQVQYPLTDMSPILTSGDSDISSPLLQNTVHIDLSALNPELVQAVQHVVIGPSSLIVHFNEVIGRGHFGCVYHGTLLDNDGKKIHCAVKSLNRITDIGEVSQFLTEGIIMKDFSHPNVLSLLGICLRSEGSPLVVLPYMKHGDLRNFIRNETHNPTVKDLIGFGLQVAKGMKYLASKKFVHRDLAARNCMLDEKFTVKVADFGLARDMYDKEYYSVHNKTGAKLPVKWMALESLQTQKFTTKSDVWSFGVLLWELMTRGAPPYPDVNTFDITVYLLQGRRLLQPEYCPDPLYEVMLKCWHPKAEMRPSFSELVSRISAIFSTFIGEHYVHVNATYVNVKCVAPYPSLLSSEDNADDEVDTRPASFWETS
UniProt P08581, 1078-1345 limits assumed: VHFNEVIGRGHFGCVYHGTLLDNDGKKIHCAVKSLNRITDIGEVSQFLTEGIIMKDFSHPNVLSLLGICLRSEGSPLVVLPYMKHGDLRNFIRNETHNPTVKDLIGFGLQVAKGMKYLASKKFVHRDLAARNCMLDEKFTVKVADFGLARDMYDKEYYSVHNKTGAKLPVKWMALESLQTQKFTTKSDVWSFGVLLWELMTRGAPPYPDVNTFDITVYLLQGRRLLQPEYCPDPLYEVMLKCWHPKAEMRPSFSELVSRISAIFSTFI

PLC/PRF/5 cells [6] = assay: nucleosome formation (Cell Death ELISA); settings: PLC/PRF/5, 72 h, DE605 1 μM added to sorafenib 4 μM
Protocol: Meanwhile, the possibility of necrotic effect was excluded by examining LDH leakage in the supernatants of drug-treated PLC/PRF/5 cells (Fig. 4A). To confirm this effect, nucleosome formation (representing DNA fragmentation) was determined in drug-treated cells.
Figure 4 Effect of sorafenib plus DE605 on LDH activity, nucleosome formation and the apoptosis-related proteins in PLC/PRF/5 cells (A) PLC/PRF/5 cells were exposed to indicated drugs for 72 hours. LDH acticity in cell supernatants or lysates was analyzed by the CytoTox 96® Non-Radioactive Cytotoxicity Assay (Promega, Madison, WI) according to manufacturer's protocol. […] Nucleosome formation was measured using the Cell Death ELISA Kit (Roche Applied Science). Data, mean ± SD (n = 3; **, P < 0.01 compared with the control group). (C) Cells were treated with various concentrations of sorafenib in combination with DE605 for 72 hours. (D) Cells were exposed to sorafenib (Sor, 4 μM) in combination with DE605 (1 μM) in the presence or absence of zVAD–FMK for 72 hours. Whole-cell lysates were collected and subjected to Western blot analysis with the indicated antibodies.

[7] = tested on: HL-7702 normal liver cells; assay: MTT cell viability assay, normal liver cells; settings: HL-7702, 72 h
Protocol: Supplemental Figure S2: Effects of DE605 on cell viability in normal liver cells and effects of sorafenib in combination with tivantinib on cell viability in hepatocellular carcinoma cells. […]
sorafenib for 72 hours, and cell viability was measured by MTT assay. (B) PLC/PRF/5 cells were treated with various concentrations of sorafenib in combination with tivantinib (ARQ 197) for 72 hours, and cell viability was measured by MTT assay (left). The combination index (CI) values were calculated by CompuSyn software (right). CI values <1 represent synergism, and the numbers reflect the corresponding data points (left). Each value represents the mean ± SD (n = 3).
(1 picture or pasted object on this page, not shown here)

PLC/PRF/5 cells [8] = assay: cell-cycle distribution by flow cytometry; settings: PLC/PRF/5, 72 h, single agent
Protocol: As sorafenib and c-Met inhibitors reportedly induce apoptosis in cancer cells, we examined the impact of our drug combination on programmed cell death. First, the effect of co-administration of DE605 and sorafenib on cell-cycle distribution was analyzed by flow cytometric analysis.
Figure 3 Effects of sorafenib in combination with DE605 on cell-cycle progression in PLC/PRF/5 cells (A) PLC/PRF/5 cells were treated with the indicated drugs for 72 hours, and cell-cycle distribution was analyzed by flow cytometry. (B) Statistical analysis of sub-G1 phase in PLC/PRF/5 cells exposed to DMSO, sorafenib alone, DE605 alone, or in sorafenib/DE605 combination. Data, mean ± SD (n = 3).
After drug treatment, the cells were harvested by trypsinization, washed with PBS, then pellets were resuspended and fixed in ethanol (70%, v/v) at −20°C overnight, and washed once with PBS. After centrifugation, the cells were incubated for 15 minutes at room temperature in 0.1 ml of phosphate-citric acid buffer. Cells were stained with propidium iodide staining buffer containing Triton X-100 (0.1%, v/v), RNase A (100 μg/ml), and propidium iodide (80 μg/ml) for 30 minutes in the dark. Cell-cycle distribution was analyzed by flow cytometry with CellQuest software (Becton Dickinson).

other 241 human kinases = assay: protein kinase selectivity panel of 242 human kinases; settings: at 15.6 μM DE605; none inhibited by more than 50%
Protocol: (§3) DE605 was synthesized to specifically interact with c-Met and inhibit its kinase activity. The biochemical activity of this compound was measured in a flash-plate assay using recombinant human c-Met kinase domain and a biotinylated peptide substrate. Under these conditions, DE605 inhibited c-Met kinase activity with an average IC50 of 12.3 nM. To assess the selectivity of DE605 for c-Met kinase activity, this compound was profiled against a protein kinase panel of 242 human kinases.
(§4) Kinase inhibition by DE605 was assessed in vitro using a panel of 242 different kinases. Biochemical activity was measured in a flash-plate assay. His6-tagged recombinant human c-Met kinase domain (Aa 974–end; 20 ng) and biotinylated poly-Ala-Glu-Lys-Tyr (6:2:5:1; 500 ng) were incubated with or without the test compound for 90 minutes at room temperature in 100 μl buffer containing 0.3 μCi ^33P-ATP, 2.5 μg polyethylene glycol 20.000, and 1% dimethyl sulfoxide (DMSO), as previously described. Radioactivity was measured with a TopCount microplate scintillation and luminescence counter (Packard BioScience BV). Inhibitory 50% concentration values (IC50) were calculated by nonlinear regression analysis using the RS/1 software program.

[9] = target: recombinant human c-Met kinase domain (Homo sapiens, UniProt P08581); assay: c-Met in vitro kinase flash-plate assay; settings: read-out: c-Met kinase activity average IC50, biotinylated peptide substrate
Protocol: as §3, §4

HepG2 cells = assay: MTT cell viability assay, HepG2; settings: read-out: cell viability IC50, HepG2, 72 h
[10] = target: c-Met phosphorylation in Hep3B cells (Homo sapiens, UniProt P08581); assay: phospho-c-Met capture ELISA, HGF-stimulated Hep3B cells
Protocol: We next investigated whether DE605 could inhibit c-Met phosphorylation induced in liver cancer cells by different mechanisms. To this end, we used the PLC/PRF/5 and Hep3B hepatocellular carcinoma cell lines, in which c-Met phosphorylation is respectively triggered by HGF binding or by c-Met gene amplification and ligand-independent activation. […] Moreover, we defined the efficiency of the cellular uptake and retention of DE605. A series of wash-out studies was conducted, in which PLC/PRF/5 and Hep3B cells were incubated for 30 to 45 minutes in the presence of different concentrations of DE605, washed, stimulated with HGF, and subsequently assessed for c-Met phosphorylation. Our findings indicate that c-Met phosphorylation was inhibited upon exposure to DE605 and lasted for more than 20 hours in PLC/PRF/5 and Hep3B cells, with an average IC50 of 5.4 and 7.2 nM, respectively. […] Higher serum concentrations could not be used in this test, as they suppressed the HGF-induced c-Met phosphorylation, probably because of HGF binding to serum proteins or HGF inactivation by serum proteases.
Figure 1 Effects of DE605 on c-Met phosphorylation, cell viability and epigenetic markers (A-B) PLC/PRF/5 (A) and Hep3B (B) hepatocellular carcinoma cells are characterized by c-Met expression and ligand dependence. In vitro PLC/PRF/5 and Hep3B culture was carried out under serum-free conditions or in the presence of 10% human or mouse serum. Upon HGF stimulation, inhibition of total c-Met phosphorylation by DE605 was assessed by c-Met capture ELISA using a pan-phospho-Tyr antibody. The levels of total phospho-c-Met were also assessed after wash-out of the inhibitors, as described in the Materials and Methods section. […] The cells were treated with different concentrations of the indicated agents for 72 hours, and cell viability was measured by MTT assay. Each value represents the mean ± SD (n = 3). […]
Total c-Met phosphorylation was assessed by c-Met–capture ELISA in Nunc-Immuno MicroWell 96-well solid plates (Sigma-Aldrich) as previously described. […]

HuH7 cells = assay: MTT cell viability assay, HuH7; settings: read-out: cell viability IC50, HuH7, 72 h
Hep3B cells = assay: MTT cell viability assay, Hep3B; settings: read-out: cell viability IC50, 72 h
[11] = tested on: FGFR3 mRNA in PLC/PRF/5 cells; assay: FGFR3 mRNA by RT-PCR, PLC/PRF/5; assay type: cell-based, human; settings: PLC/PRF/5, DE605 1.0 μM, 72 h
[12] = target: HGF-induced c-Met phosphorylation (Homo sapiens, UniProt P08581); assay: phospho-c-Met capture ELISA in presence of 10% serum (cell line not specified); settings: read-out: inhibition of HGF-induced c-Met phosphorylation, average IC50
Protocol: as §1, §2

IC50 ([5]; read-out: c-Met phosphorylation after wash-out, average IC50, PLC/PRF/5, wash-out study): 5.4 nM | IC50 ([5]; read-out: inhibition of HGF-induced c-Met phosphorylation, average IC50, PLC/PRF/5, serum-free): 4.1 nM | IC50 [9]: 12.3 nM | IC50 (HepG2 cells): 1200 nM | duration of c-Met phosphorylation inhibition after wash-out [10]: more than 20 hours | IC50 ([10]; read-out: c-Met phosphorylation after wash-out, average IC50, wash-out study): 7.2 nM | IC50 ([10]; read-out: inhibition of HGF-induced c-Met phosphorylation, average IC50, serum-free): 5.6 nM | IC50 (HuH7 cells): 2000 nM | IC50 (Hep3B cells): 4500 nM | IC50 ([12]; 10% (v/v) human serum): 19.1 nM | IC50 ([12]; 10% (v/v) murine serum): 14.7 nM
SMILES: CC(=O)N1CCC(n2cc(-c3cnc(N)c(-c4nc5ccccc5o4)c3)cn2)CC1
interaction with sorafenib on cell viability (combination index) (PLC/PRF/5 cells [1]; DE605 0.5 and 1.0 μM with sorafenib, CI <1 = synergism): synergistic effect | IC50 (PLC/PRF/5 cells [1]; read-out: cell viability IC50, MTT): 3400 nM | mRNA level of FGFR3 [2]: up-regulated | level of phosphorylated-Erk (p-Erk) [3]: dramatically elevated | tumor growth inhibition (TGI) [4]: 37.3% | sorafenib-induced nucleosome formation (PLC/PRF/5 cells [6]): dramatically enhanced | cytotoxicity in normal liver cells [7]: a little lower cytotoxicity in HL-7702 cells than in HCC cells | cell-cycle arrest (PLC/PRF/5 cells [8]): no appreciable cell-cycle arrest | inhibition of the other 241 human kinases (other 241 human kinases): ≤ 50% | mRNA level of FGFR3 [11]: up-regulated

From publication PMC4494942, “Sorafenib and DE605, a novel c-Met inhibitor, synergistically suppress hepatocellular carcinoma” (Oncotarget, 2015)
